Drawing on patent publication US20190010233A1, this text covers Mean fluorescence intensity and OD450 nm for one substance.

The target in assay [1] is full length cyno PD-L1 on cells (cyno) (UniProt G7PSE7). Briefly: FACS CHO-K1-cPD-L1, 33.33 nM mAb.
Assay [2] shares this target. Put plainly: FACS CHO-K1-cPD-L1, 11.11 nM mAb.
In assay [3] the target is hPD-L2 (human) (UniProt Q9BQ51). Put plainly: ELISA, mAb concentration not given. On the technique in general: An ELISA detects its analyte on a solid surface through an enzyme-linked reagent.
Assay [4] addresses full length cyno PD-L1 on cells (cyno) (UniProt G7PSE7). Briefly: FACS CHO-K1-cPD-L1, 0.41 nM mAb.
Assay [5] has the same target. Put plainly: FACS CHO-K1-cPD-L1, 0.14 nM mAb.
For assay [6] the target is unchanged. Briefly: FACS CHO-K1-cPD-L1, 100.00 nM mAb.
For assay [7] the target is unchanged. Put plainly: FACS CHO-K1-cPD-L1, 3.70 nM mAb.

Regarding chimeric anti-PD-L1 antibody 78B2D7, the Mean fluorescence intensity in assay [1] came to 91.8; in assay [2], 101; in assay [4], 71.6; in assay [5] it was 37.6; in assay [6], 96.2; in assay [7] it was 108. In assay [3], this substance had an OD450 nm of 0.218.
